Literature values in US12098352B2, “Stem cell-based lung-on-chip models” (EMULATE, INC., priority 2018, dated 2024).

Tested on: pulmonary vascular leakage
Details: static conditions; cited from earlier work

Question: For “IL-2: cytokine inducing lung toxicity / pulmonary edema on-chip”, which “pulmonary vascular leakage into the air channel” value is on record?
Answer: Its value is “induce limited pulmonary vascular leakage”.
